Test: clinical
Conditions: male, human, in vivo, po, time of maximum plasma concentrations after dosing
Source text: Thirty six healthy male volunteers (Caucasian, Black and Hispanic) were enrolled in this study, which was designed as an open label, single dose, 3-way crossover study.

Tmax: 1.06 h
SMILES: NC(=O)CC[C@@H]1NC(=O)[C@H](Cc2ccccc2)NC(=O)[C@H](Cc2ccc(O)cc2)NC(=O)CCSSC[C@@H](C(=O)N2CCC[C@H]2C(=O)N[C@H](CCCN=C(N)N)C(=O)NCC(N)=O)NC(=O)[C@H](CC(N)=O)NC1=O [desmopressin, 1-desamino-8-D-arginine vasopressin]

— US7947654B2, “Pharmaceutical formulations” (Ferring B.V., priority 2002, dated 2011)
